Experimental data as given in article PMC10515483, “Structure–Reactivity Studies of 2-Sulfonylpyrimidines Allow Selective Protein Arylation” (Bioconjugate Chemistry, 2023).

Test: GSH arylation rate constants (NMR; UV-vis for fast warheads)
Assay type: physicochemical
Source text: We employed nuclear magnetic resonance (NMR) and UV–vis to quantify the reactivity of our 2-SP derivatives and other representative electrophiles (Figure 2) against cysteine. NMR allowed straightforward determination of reaction rate constants through dual monitoring of the consumption of the warhead and formation of the product by integration of their respective NMR signals (Figures S1–S3). It simultaneously provided a direct readout on reaction specificity and hydrolytic stability of the warhead. All measurements were carried out in KPi buffer in the presence of 5% d^6-dmso, which is generally well-tolerated by a wide range of proteins in in vitro studies. N-acetylcysteine methylester (NACME) and L-glutathione (GSH) are useful model cysteine nucleophiles for in vitro studies of electrophilic agents.[32] Mixing reference electrophile 2-methylsulfonylpyrimidine (4q) with NACME or GSH in a 1:10 ratio (pseudo-first-order conditions) allowed extraction of accurate and reproducible second order rate constants (k).
Figure 3 In vitro determination of electrophilic reactivity of compounds. […] All rate constants were calculated as an average of at least two independent measurements. […]
To establish an accurate structure–reactivity profile of 2-SP reagents, we systematically determined their reaction rate constants for the arylation of GSH by NMR, at pH 7.0 and 6.5. […]

In the case of `OB1OCc2ccccc21` [compound 23, reference compound], the “reactivity with GSH (in words)” value is reported as “none”.
